# In patent US6936187B2, “Functionalized cubic liquid crystalline phase materials and methods for their preparation and use” (priority 2001, dated 2005):
# Details: monoolein/water cuboplex gels with ketoprofen
substance,measurement,value
di(canola ethyl ester) dimethyl amine chloride [DEEDAC],level at which the additive can be included in cuboplex gel,greater than 20%
